Sequences of proteins named here, by UniProt entry; tags and fusion partners are left off. A change or cut given only in a name is not applied to a line headed by its entry.
UniProt P10275: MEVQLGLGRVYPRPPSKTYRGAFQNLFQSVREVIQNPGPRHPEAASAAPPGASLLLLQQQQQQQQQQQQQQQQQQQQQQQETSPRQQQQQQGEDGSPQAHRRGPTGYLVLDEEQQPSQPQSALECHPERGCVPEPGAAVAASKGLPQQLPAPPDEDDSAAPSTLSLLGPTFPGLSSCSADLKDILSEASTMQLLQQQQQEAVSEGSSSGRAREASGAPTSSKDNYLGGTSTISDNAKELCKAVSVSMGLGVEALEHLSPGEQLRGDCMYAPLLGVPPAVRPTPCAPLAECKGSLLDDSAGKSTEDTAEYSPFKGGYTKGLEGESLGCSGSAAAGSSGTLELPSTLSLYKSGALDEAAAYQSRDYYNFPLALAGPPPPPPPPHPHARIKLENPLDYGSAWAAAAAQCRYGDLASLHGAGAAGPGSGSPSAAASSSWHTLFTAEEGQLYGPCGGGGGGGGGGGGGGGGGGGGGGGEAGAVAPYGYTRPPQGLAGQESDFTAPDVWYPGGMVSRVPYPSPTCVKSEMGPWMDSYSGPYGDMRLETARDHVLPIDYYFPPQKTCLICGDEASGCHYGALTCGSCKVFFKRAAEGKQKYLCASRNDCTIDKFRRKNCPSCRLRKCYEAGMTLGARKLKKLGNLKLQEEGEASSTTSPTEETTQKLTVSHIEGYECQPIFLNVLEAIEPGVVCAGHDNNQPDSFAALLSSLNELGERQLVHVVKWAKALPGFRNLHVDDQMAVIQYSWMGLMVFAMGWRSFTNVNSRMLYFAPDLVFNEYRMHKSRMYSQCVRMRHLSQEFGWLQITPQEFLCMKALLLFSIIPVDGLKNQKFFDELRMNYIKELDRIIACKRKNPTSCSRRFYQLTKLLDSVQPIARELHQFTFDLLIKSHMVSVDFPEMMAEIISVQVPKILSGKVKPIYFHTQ

According to patent publication US7696246B2 (Ligand Pharmaceuticals Incorporated, priority 1999, dated 2010):

Legend:
[1] = biological target: T1, human AR (Homo sapiens, UniProt P10275); assay: Co-transfection assay, AR antagonist activity (CV-1 cells, in presence of DHT); conditions: read-out: AR Antagonist CV-1 Cells Potency
[2] = biological target: T1, human AR; assay: AR whole cell competitive binding assay (COS-1 cells, 3H-DHT); conditions: read-out: AR Binding Ki
[3] = biological target: T1, human AR; assay: Co-transfection assay, AR agonist activity (CV-1 cells, MTV-LUC reporter); conditions: read-out: AR Agonist CV-1 Cells Potency

C=CC(C)(C)Nc1ccc2c(C(F)(F)F)cc(=O)[nH]c2c1 [Compound 559, 7-(1,1-Dimethylallyl)amino-4-trifluoromethyl-2(1H)-quinolinone]
IC50 [1]: 122 nM
Ki [2]: 118 nM

CCCNc1ccc2c(C(F)(F)F)cc(=O)[nH]c2c1 [Compound 513, 7-Propylamino-4-trifluoromethyl-2(1H)-quinolinone]
Ki [2]: 37 nM

CCCCN(CCCC)c1ccc2[nH]c(=O)cc(C(F)(F)F)c2c1 [Compound 220, 6-Dibutylamino-4-trifluoromethyl-2(1H)-quinolinone]
Ki [2]: 222 nM

O=c1cc(C(F)(F)F)c2ccc(NCC(F)(F)C(F)(F)F)cc2[nH]1 [Compound 520, 7-(2,2,3,3,3-Pentafluoropropyl)amino-4-trifluoromethyl-2(1H)-quinolinone]
IC50 [1]: 58 nM
Ki [2]: 36 nM

CCCNc1ccc2[nH]c(=O)cc(C(F)(F)F)c2c1 [Compound 204, 6-Propylamino-4-trifluoromethyl-2(1H)-quinolinone]
EC50 [3]: 2020 nM
Ki [2]: 54 nM

CCN(c1ccc2[nH]c(=O)cc(C(F)(F)F)c2c1)C(C)C [Compound 239, 6-(N-Ethyl-N-isopropyl)amino-4-trifluoromethyl-2(1H)-quinolinone]
Ki [2]: 7.4 nM

CC(C)Nc1ccc2c(C(F)(F)F)cc(=O)[nH]c2c1 [Compound 514, 7-Isopropylamino-4-trifluoromethyl-2(1H)-quinolinone]
Ki [2]: 79 nM

CCC(C)c1cc2c(C(F)(F)F)cc(=O)[nH]c2cc1N (stereo not drawn) [Compound 581, 7-Amino-6-sec-butyl-4-trifluoromethyl-2(1H)-quinolinone]
EC50 [3]: 65 nM

Cc1cc(=O)[nH]c2ccc(N(CC(F)(F)F)CC(F)(F)F)cc12 [Compound 377, 6-(bis-2,2,2-Trifluoroethyl)amino-4-methyl-2(1H)-quinolinone]
Ki [2]: 1.4 nM
